The source of these data is ChEMBL document CHEMBL3124870, “Discovery and characterization of potent thiazoles versus methicillin- and vancomycin-resistant Staphylococcus aureus” (J Med Chem, 2014).

The test system of this series is Caco-2. Description: Apparent permeability across basolateral to apical to side in human Caco2 cells at 10 microM for 2 hrs by LC-MS/MS analysis. The conditions noted are these: caco-2, 2 h. It counts as ADME, cell-based.

For the compound `CNC(=C[N+](=O)[O-])NCCSCc1ccc(CN(C)C)o1` [RANITIDINE], the Papp is reported as 1.2 ucm/s.
